# Key:
# Sequences of proteins named here, by UniProt entry; tags and fusion partners are left off.
# UniProt P06239, whole entry: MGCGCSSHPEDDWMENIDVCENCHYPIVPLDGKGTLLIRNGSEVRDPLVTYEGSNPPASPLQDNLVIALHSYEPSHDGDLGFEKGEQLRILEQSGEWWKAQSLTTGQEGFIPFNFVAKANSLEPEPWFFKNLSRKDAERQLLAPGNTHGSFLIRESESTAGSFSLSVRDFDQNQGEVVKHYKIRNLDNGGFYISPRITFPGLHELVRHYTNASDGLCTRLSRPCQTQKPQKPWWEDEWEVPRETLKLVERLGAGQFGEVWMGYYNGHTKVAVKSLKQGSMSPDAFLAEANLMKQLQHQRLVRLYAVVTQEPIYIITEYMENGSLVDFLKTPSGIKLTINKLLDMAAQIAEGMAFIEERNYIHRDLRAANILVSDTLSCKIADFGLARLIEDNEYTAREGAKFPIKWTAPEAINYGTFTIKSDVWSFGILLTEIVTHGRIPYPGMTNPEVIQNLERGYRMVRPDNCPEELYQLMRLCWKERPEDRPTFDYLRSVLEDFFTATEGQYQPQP
# UniProt Q99640, whole entry: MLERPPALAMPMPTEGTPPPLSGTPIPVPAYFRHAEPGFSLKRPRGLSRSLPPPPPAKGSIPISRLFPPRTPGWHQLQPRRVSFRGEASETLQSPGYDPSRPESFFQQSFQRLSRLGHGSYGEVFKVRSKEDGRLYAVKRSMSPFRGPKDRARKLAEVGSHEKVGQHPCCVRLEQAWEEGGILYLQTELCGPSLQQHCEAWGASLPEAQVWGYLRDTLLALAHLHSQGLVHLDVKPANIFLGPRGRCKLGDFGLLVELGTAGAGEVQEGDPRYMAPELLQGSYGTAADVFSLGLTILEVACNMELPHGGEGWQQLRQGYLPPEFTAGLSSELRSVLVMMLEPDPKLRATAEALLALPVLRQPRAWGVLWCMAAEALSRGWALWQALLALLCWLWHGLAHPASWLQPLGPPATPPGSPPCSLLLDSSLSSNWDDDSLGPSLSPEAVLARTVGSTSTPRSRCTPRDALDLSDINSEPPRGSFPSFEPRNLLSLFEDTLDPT
# [1] = target: LCK (Homo sapiens (Human), UniProt P06239); experiment: In vitro assay: kinase binding to immobilized ligand, captured kinase measured by qPCR; conditions: read-out: LCK (IC50 = nM)
# [2] = target: PKMYT1 (Homo sapiens (Human), UniProt Q99640); experiment: as above; conditions: read-out: PKMYT1 (IC50 = nM)
SMILES,IC50 [1],IC50 [2]
Cc1c(O)cc(F)c(C)c1-n1c(N)c(C(N)=O)c2cnc(C(F)(F)F)nc21,< 50 nM,< 50 nM
Cc1c(O)cc(F)c(C)c1-n1c(N)c(C(N)=O)c2cncc(C#N)c21,< 50 nM,< 50 nM
Cc1c(O)cc(F)c(C)c1-n1c(N)c(C(N)=O)c2cnc(C3CC3(C)C)nc21 (stereo not drawn),< 50 nM,< 50 nM
"Cc1ccc(O)c(C)c1-n1c(N)c(C(N)=O)c2cncc(C#N)c21 [Compound 587, 2-amino-7-cyano-1-(3-hydroxy-2,6-dimethylphenyl)-1H-pyrrolo[3,2-c]pyridine-3-carboxamide]",< 50 nM,–
Cc1ccc(O)c(C)c1-n1c(N)c(C(N)=O)c2cnc(C[Si](C)(C)C)nc21,50 to 100 nM,50 to 100 nM
Cc1ncc2c(C(N)=O)c(N)n(-c3c(C)cc4[nH]c(=O)[nH]c4c3C)c2n1,> 1000 nM,> 1000 nM
Cc1c(O)cc(F)c(C)c1-n1c(N)c(C(N)=O)c2cnc(C3CC3)c(Br)c21,< 50 nM,100 to 1000 nM
Cc1c(O)cc(F)c(C)c1-n1c(N)c(C(N)=O)c2cnc(C[Si](C)(C)C)nc21,< 50 nM,< 50 nM

# Source: US20250388583A1, “COMPOUNDS AND METHOD FOR PKMYT1 INHIBITION” (Engine Biosciences Pte. Ltd., priority 2022, published 2025)
